Test system: Staphylococcus aureus
Conditions: USA300

GENTAMICIN
MIC: 0.5 to 8 µg/mL

Reference: ChEMBL document CHEMBL3994613, “Diaryltriazenes as antibacterial agents against methicillin resistant Staphylococcus aureus (MRSA) and Mycobacterium smegmatis” (Eur J Med Chem, 2017)
